The record followed here is article PMC9021956 (2022).

As a reminder, the IC50 is the concentration at which inhibition is half-maximal. High values mean weaker potency in that assay, low ones greater potency in that assay.

Assay [1] has as its target HLA-A0201 (Homo sapiens, UniProt P04439, D140Y/D185E/D98H/E176V/E277Q/G131W/G231S/I119V/I121R/I166T/I218V/L300P/L318F/N151K/N90K/P208A/P217A/Q86G/Q94H/R138H/R169H/T345S). Description: cell-based.
Assay [2] addresses HLA-A0207 (Homo sapiens, UniProt P04439, D140Y/D185E/D98H/E176V/E277Q/G131W/G231S/I119V/I121R/I166T/I218V/L300P/L318F/N151K/N90K/P208A/P217A/Q86G/Q94H/R138H/R169H/T345S/Y123C). The assay is described as follows: cell-based.
The target of assay [3] is HLA-A1101 (Homo sapiens, UniProt P04439, A114D/D185E/E176A/F33Y/L180Q/S129P/T187R). Description: cell-based.
Assay [4] addresses HLA-A2402 (Homo sapiens, UniProt P04439, D101N/D140Y/D185E/E176V/E190D/F33S/G103R/G107R/I119L/I121M/I306V/K335N/L105A/L180Q/L300P/N151K/N90K/Q86E/Q94H/R106L/R138H/R89G/T104I/T345S/V100E/W191G/Y123F). Description: cell-based.
Assay [5] concerns the target HLA-A1102 (Homo sapiens, UniProt P04439, A114D/D185E/E176A/E43K/F33Y/L180Q/S129P/T187R). Description: Peptide competitive binding assay, transfected HMy2.CIR cells, reference ATFQFK(FITC)VER.
Assay [6] deals with HLA-A0101 (Homo sapiens, UniProt P04439, A114D/A174V/A182V/D101N/D185E/E176A/E190D/L180R/Q94H/R68K/S129P/T187R/V100A/V91M/W191G). The assay is described as follows: Peptide competitive binding assay, transfected HMy2.CIR cells, reference YLEPAK(FITC)AKY.
For assay [7], the target named is HLA-A0301 (Homo sapiens, UniProt P04439). The assay is described as follows: Peptide competitive binding assay, transfected HMy2.CIR cells, reference ATFQFK(FITC)VER.
Assay [8] has as its system twelve prevalent HLA-A allotypes. The assay is described as follows: Peptide competitive binding assay, whole panel. The following applies: high = IC50<5μM.

Turning to `CSCC[C@H](NC(=O)[C@@H](N)CCSC)C(=O)N[C@@H](Cc1c[nH]c2ccccc12)C(=O)N[C@@H](Cc1ccc(O)cc1)C(=O)N[C@@H](Cc1c[nH]c2ccccc12)C(=O)NCC(=O)N1CCC[C@H]1C(=O)N[C@@H](CO)C(=O)N[C@@H](CC(C)C)C(=O)O` [Epitope P72], the IC50 in assay [1] is less than 5 µM; in assay [2], less than 5 µM; in assay [3] it was greater than 15 µM; in assay [4], less than 5 µM; in assay [5] it was greater than 15 µM; in assay [6], greater than 15 µM. In assay [7], this compound registered an IC50 greater than 15 µM.
For `CC(C)C[C@H](NC(=O)[C@@H](N)Cc1ccccc1)C(=O)N1CCC[C@H]1C(=O)N[C@@H](CO)C(=O)N[C@@H](CC(=O)O)C(=O)N[C@@H](Cc1ccccc1)C(=O)N[C@@H](Cc1ccccc1)C(=O)N1CCC[C@H]1C(=O)N[C@@H](CO)C(=O)N[C@H](C(=O)O)C(C)C` [Epitope P1], the “number of HLA-A allotypes bound with high affinity” value in assay [8] is “three”.
